{
  "source": "patent US20230157952A1",
  "about": "“METHOD FOR IMPROVING THE STABILITY OF A PHARMACEUTICAL COMPOSITION COMPRISING A HIGH PENETRATION DRUG, AND THE PHARMACEUTICAL COMPOSITION OBTAINED THEREFROM” (Techfields Inc., priority 2020, published 2023)",
  "key": {"[1]": {"assay": "Effect of temperature (and pH) on the stability of the solution (purity)", "assay_type": "physicochemical", "text": "The results are illustrated in the following."}, "[2]": {"assay": "Stability of the pure HPDs (dry solid) at 25° C./RH 60%", "assay_type": "physicochemical", "conditions": "pure HPD, 25° C./RH 60%"}},
  "data": [
    {"smiles": "CCN(CC)CCOC(=O)[C@H](C)c1ccc(CC(C)C)cc1.Cl", "values": [
      {"measurement": "Purity(%) at day 0", "setting": "[1]; pH 1.02, 7% solution in water", "result": "97.8 ± 0.4", "unit": "%"},
      {"measurement": "Purity(%) at day 0", "setting": "[1]; pH 2.09, 7% solution in water", "result": "98.0 ± 0.4", "unit": "%"},
      {"measurement": "Purity(%) at day 0", "setting": "[1]; pH 3.01, 7% solution in water", "result": "98.1 ± 0.3", "unit": "%"},
      {"measurement": "Purity(%) at day 21 (5° C.)", "setting": "[1]; pH 3.01, 7% solution in water", "result": "97.8 ± 0.4", "unit": "%"},
      {"measurement": "Purity(%) at day 0", "setting": "[1]; pH 3.68, 7% solution in water", "result": "98.2 ± 0.2", "unit": "%"},
      {"measurement": "Purity(%) at day 21 (5° C.)", "setting": "[1]; pH 3.68, 7% solution in water", "result": "98.1 ± 0.3", "unit": "%"},
      {"measurement": "Purity(%) at day 21 (25° C.)", "setting": "[1]; pH 3.68, 7% solution in water", "result": "97.7 ± 0.3", "unit": "%"},
      {"measurement": "Purity(%) at day 0", "setting": "[1]; pH 4.07, 7% solution in water", "result": "98.2 ± 0.3", "unit": "%"},
      {"measurement": "Purity(%) at day 21 (5° C.)", "setting": "[1]; pH 4.07, 7% solution in water", "result": "98.0 ± 0.4", "unit": "%"},
      {"measurement": "Purity(%) at day 21 (25° C.)", "setting": "[1]; pH 4.07, 7% solution in water", "result": "97.8 ± 0.4", "unit": "%"},
      {"measurement": "Purity(%) at day 0", "setting": "[1]; pH 4.35, 7% solution in water", "result": "98.3 ± 0.2", "unit": "%"},
      {"measurement": "Purity(%) at day 21 (5° C.)", "setting": "[1]; pH 4.35, 7% solution in water", "result": "98.1 ± 0.4", "unit": "%"},
      {"measurement": "Purity(%) at day 21 (25° C.)", "setting": "[1]; pH 4.35, 7% solution in water", "result": "97.8 ± 0.3", "unit": "%"},
      {"measurement": "Purity(%) at day 0", "setting": "[1]; pH 4.67, 7% solution in water", "result": "98.2 ± 0.3", "unit": "%"},
      {"measurement": "Purity(%) at day 21 (5° C.)", "setting": "[1]; pH 4.67, 7% solution in water", "result": "98.1 ± 0.2", "unit": "%"},
      {"measurement": "Purity(%) at day 0", "setting": "[1]; pH 4.96, 7% solution in water", "result": "98.1 ± 0.3", "unit": "%"},
      {"measurement": "Purity(%) at day 0", "setting": "[1]; pH 5.98, 7% solution in water", "result": "98.0 ± 0.4", "unit": "%"},
      {"measurement": "Purity(%) at day 0", "setting": "[1]; pH 6.99, 7% solution in water", "result": "97.9 ± 0.4", "unit": "%"}
    ]},
    {"smiles": "CCN(CC)CCOC(=O)[C@@H](C)c1ccc(-c2ccccc2)c(F)c1.Cl", "note": "[B-1-2, 2-(diethylamino)ethyl (S)-2-(2-fluoro-4-biphenyl)propionate•HCl salt]", "values": [
      {"measurement": "Purity", "setting": "[2]; 6 month", "result": "98.5 ± 0.2"},
      {"measurement": "Purity", "setting": "[2]; 12 month", "result": "98.4 ± 0.2"},
      {"measurement": "Purity", "setting": "[2]; 18 month", "result": "98.3 ± 0.1"},
      {"measurement": "Purity", "setting": "[2]; 24 month", "result": "98.2 ± 0.1"}
    ]},
    {"smiles": "CCN(CC)CCOC(=O)[C@@H](C)c1ccc(CC(C)C)cc1.Cl", "note": "[C-1-2, 2-(diethylamino)ethyl (S)-2-(p-isobutylphenyl)propionate•HCl salt]", "values": [
      {"measurement": "Purity", "setting": "[2]; 3 month", "result": "98.5 ± 0.3"},
      {"measurement": "Purity", "setting": "[2]; 6 month", "result": "98.4 ± 0.4"},
      {"measurement": "Purity", "setting": "[2]; 9 month", "result": "98.5 ± 0.3"},
      {"measurement": "Purity", "setting": "[2]; 12 month", "result": "98.3 ± 0.4"},
      {"measurement": "Purity", "setting": "[2]; 18 month", "result": "98.2 ± 0.1"},
      {"measurement": "Purity", "setting": "[2]; Day 0", "result": "98.5 ± 0.1"}
    ]},
    {"smiles": "CCN(CC)CCOC(=O)[C@H](C)c1ccc2cc(OC)ccc2c1.Cl", "note": "(racemic) [A-1-3, 2-(diethylamino)ethyl (R)-2-(6-methoxy-2-naphthyl) propionate•HCl salt]", "values": [
      {"measurement": "Purity", "setting": "[2]; 3 month", "result": "98.4 ± 0.2"},
      {"measurement": "Purity", "setting": "[2]; 6 month", "result": "98.5 ± 0.2"},
      {"measurement": "Purity", "setting": "[2]; 12 month", "result": "98.2 ± 0.1"},
      {"measurement": "Purity", "setting": "[2]; Day 0", "result": "98.5 ± 0.2"}
    ]},
    {"smiles": "CCN(CC)CCOC(=O)C(C)c1ccc(CC(C)C)cc1.Cl", "note": "(racemic)", "values": [
      {"measurement": "Purity(%) at day 0", "setting": "[1]; pH 1.02, 7% solution in water", "result": "98.0 ± 0.4", "unit": "%"},
      {"measurement": "Purity(%) at day 0", "setting": "[1]; pH 2.09, 7% solution in water", "result": "98.2 ± 0.4", "unit": "%"},
      {"measurement": "Purity(%) at day 0", "setting": "[1]; pH 3.00, 7% solution in water", "result": "98.5 ± 0.3", "unit": "%"},
      {"measurement": "Purity(%) at day 21 (5° C.)", "setting": "[1]; pH 3.00, 7% solution in water", "result": "98.0 ± 0.4", "unit": "%"},
      {"measurement": "Purity(%) at day 0", "setting": "[1]; pH 3.68, 7% solution in water", "result": "98.5 ± 0.2", "unit": "%"},
      {"measurement": "Purity(%) at day 21 (5° C.)", "setting": "[1]; pH 3.68, 7% solution in water", "result": "98.4 ± 0.3", "unit": "%"},
      {"measurement": "Purity(%) at day 21 (25° C.)", "setting": "[1]; pH 3.68, 7% solution in water", "result": "98.1 ± 0.4", "unit": "%"},
      {"measurement": "Purity(%) at day 0", "setting": "[1]; pH 4.07, 7% solution in water", "result": "98.6 ± 0.3", "unit": "%"},
      {"measurement": "Purity(%) at day 21 (5° C.)", "setting": "[1]; pH 4.07, 7% solution in water", "result": "98.5 ± 0.3", "unit": "%"},
      {"measurement": "Purity(%) at day 21 (25° C.)", "setting": "[1]; pH 4.07, 7% solution in water", "result": "98.2 ± 0.2", "unit": "%"},
      {"measurement": "Purity(%) at day 0", "setting": "[1]; pH 4.35, 7% solution in water", "result": "98.6 ± 0.2", "unit": "%"},
      {"measurement": "Purity(%) at day 21 (5° C.)", "setting": "[1]; pH 4.35, 7% solution in water", "result": "98.6 ± 0.4", "unit": "%"},
      {"measurement": "Purity(%) at day 21 (25° C.)", "setting": "[1]; pH 4.35, 7% solution in water", "result": "98.2 ± 0.3", "unit": "%"},
      {"measurement": "Purity(%) at day 0", "setting": "[1]; pH 4.67, 7% solution in water", "result": "98.5 ± 0.1", "unit": "%"},
      {"measurement": "Purity(%) at day 21 (5° C.)", "setting": "[1]; pH 4.67, 7% solution in water", "result": "98.5 ± 0.4", "unit": "%"},
      {"measurement": "Purity(%) at day 21 (25° C.)", "setting": "[1]; pH 4.67, 7% solution in water", "result": "98.1 ± 0.4", "unit": "%"},
      {"measurement": "Purity(%) at day 0", "setting": "[1]; pH 4.95, 7% solution in water", "result": "98.5 ± 0.3", "unit": "%"},
      {"measurement": "Purity(%) at day 0", "setting": "[1]; pH 5.98, 7% solution in water", "result": "98.4 ± 0.3", "unit": "%"},
      {"measurement": "Purity(%) at day 0", "setting": "[1]; pH 6.98, 7% solution in water", "result": "98.3 ± 0.4", "unit": "%"},
      {"measurement": "Purity(%) at day 0", "setting": "[1]; pH 8.01, 7% solution in water", "result": "98.0 ± 0.4", "unit": "%"}
    ]},
    {"smiles": "CCN(CC)CCOC(=O)[C@H](C)c1ccc(CC(C)C)cc1.Cl", "note": "[C-1-3, 2-(diethylamino)ethyl (R)-2-(p-isobutylphenyl)propionate•HCl salt]", "values": [
      {"measurement": "Purity", "setting": "[2]; 3 month", "result": "98.2 ± 0.2"},
      {"measurement": "Purity", "setting": "[2]; Day 0", "result": "98.2 ± 0.1"}
    ]},
    {"smiles": "CCN(CC)CCOC(=O)[C@H](C)c1ccc(-c2ccccc2)c(F)c1.Cl", "note": "[B-1-3, 2-(diethylamino)ethyl (R)-2-(2-fluoro-4-biphenyl)propionate•HCl salt]", "values": [
      {"measurement": "Purity", "setting": "[2]; 3 month", "result": "98.3 ± 0.1"},
      {"measurement": "Purity", "setting": "[2]; 6 month", "result": "98.3 ± 0.1"},
      {"measurement": "Purity", "setting": "[2]; 12 month", "result": "98.2 ± 0.1"},
      {"measurement": "Purity", "setting": "[2]; Day 0", "result": "98.4 ± 0.1"}
    ]},
    {"smiles": "CCN(CC)CCOC(=O)C(C)c1ccc(-c2ccccc2)c(F)c1.Cl", "note": "(stereo not shown) [B-1-1, 2-(diethylamino)ethyl 2-(2-fluoro-4-biphenyl)propionate•HCl salt]", "values": [
      {"measurement": "Purity", "setting": "[2]; 3 month", "result": "98.4 ± 0.1"},
      {"measurement": "Purity", "setting": "[2]; 12 month", "result": "98.2 ± 0.1"},
      {"measurement": "Purity", "setting": "[2]; Day 0", "result": "98.5 ± 0.2"}
    ]}
  ]
}
